Key:
[1] = Single intravenous administration exposure, pharmacokinetics (Test Example 4); format: in vivo, ICR mice; conditions: mice
Protocol: The compound QPX-7728 disodium salt (synthesized according to CN109415386) and compound 1-1-Na (calculated amount of free drug=weighed amount×correction factor) were accurately weighed out, dissolved first in sterile water for injection to 40 mg/mL, and then diluted with normal saline to concentrations for administration. The solutions were prepared on the day of administration and stored at 4° C.
Single intravenous injections were administered to ICR mice, which were grouped as follows. Blood was collected from the saphenous vein or the fundus venous plexus at 0.083 h, 0.25 h, 0.5 h, 1 h, 2 h, 4 h, 6 h and 12 h after administration (about 0.1 mL/time point). A biological analysis method was developed to determine plasma concentrations at different time points, and related pharmacokinetic parameters were calculated.

[2] = system: cefepime-resistant Klebsiella pneumoniae expressing different types of β-lactamases; format: cell-based; conditions: summary in words of Test Example 3 (sentence runs over b277-b278)
Protocol: • 1) The antibiotic cefepime was diluted with a corresponding solvent to form a 12.8 mg/mL solution. • 2) QPX-7728 and compound 1-1-Na were made into 3.2 mg/mL solutions in DMSO. • 3) Test trains: cefepime-resistant Klebsiella pneumoniae (ARLG-1127 (Urine), ARLG-1195, ARLG-1196, ATCC BAA-1705, ATCC BAA-1898, ATCC BAA-1899, ATCC BAA-2343, ATCC BAA-2470) expressing different types of β-lactamases, from Eurofins Inc.
The biosafety cabinet was sterilized with ultraviolet light for 30 min. Glycerol tubes were taken out of a −80° C. freezer, and streaks were gently formed in the glycerol tubes using inoculating loops. Bacteria were inoculated onto MHIIA solid plates. The plates were incubated overnight in a 37° C. incubator.
30 μL of compound stock solution was added to column 1 of a 96-well v-bottom plate, and DMSO was added to columns 2-10. Subsequently, 15 μL was transferred from column 1 to column 2 using a pipette and well mixed gently, and then 15 μL of solution was transferred from column 2 to column 3: the serial dilution process proceeded to column 10 (200×β-lactamase inhibitor working solutions were prepared). The antibiotic was diluted with a corresponding solvent to form a 1.6 mg/mL solution.

## O=C([O-])c1c2c(cc3c1O[B-](O)(O)[C@@H]1C[C@H]31)OCCO2.[Na+].[Na+] [Compound 1-1-Na]
[1]
  single intravenous administration exposure relative to that of the QPX7728 disodium salt: about 5 times
[2]
  restore to cefepime antibacterial activity against cefepime-resistant Klebsiella pneumoniae: significantly

From US20240209004A1, “BORIC ACID DERIVATIVE ACTING AS Beta-LACTAMASE INHIBITOR” (TUOJIE BIOTECH (SHANGHAI) CO., LTD., priority 2021, published 2024)
